In patent publication EP1412028B1, “TETRAHYDROINDOLONE DERIVATIVES LINKED TO ARYLPIPERAZINES” (Spectrum Pharmaceuticals, Inc., priority 2001, dated 2003):

Test system: Caco-2 cells
Assay: Membrane permeability (Papp) across Caco-2 cell monolayers
Details: Yes/No judgement

With `Cc1nc2n(c(=O)c1CCN1CCC(c3noc4cc(F)ccc34)CC1)CCCC2` [Risperidone, risperidone, reference compound] the “EFFLUX LIMITED” value was “No”.
